Sequences of proteins named here, by UniProt entry; tags and fusion partners are left off. A change or cut given only in a name is not applied to a line headed by its entry. Residues count along the entry.
UniProt P41145: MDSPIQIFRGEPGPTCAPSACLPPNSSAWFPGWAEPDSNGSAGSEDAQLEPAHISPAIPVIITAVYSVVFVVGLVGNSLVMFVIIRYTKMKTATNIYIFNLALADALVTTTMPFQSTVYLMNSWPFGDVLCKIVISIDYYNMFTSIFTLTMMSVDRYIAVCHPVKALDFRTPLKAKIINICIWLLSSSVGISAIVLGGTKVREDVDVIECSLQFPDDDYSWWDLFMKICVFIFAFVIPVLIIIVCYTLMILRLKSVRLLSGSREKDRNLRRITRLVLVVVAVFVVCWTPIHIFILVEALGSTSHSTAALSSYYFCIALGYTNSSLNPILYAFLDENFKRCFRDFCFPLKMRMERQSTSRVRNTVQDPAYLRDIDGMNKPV
UniProt P34972, whole entry: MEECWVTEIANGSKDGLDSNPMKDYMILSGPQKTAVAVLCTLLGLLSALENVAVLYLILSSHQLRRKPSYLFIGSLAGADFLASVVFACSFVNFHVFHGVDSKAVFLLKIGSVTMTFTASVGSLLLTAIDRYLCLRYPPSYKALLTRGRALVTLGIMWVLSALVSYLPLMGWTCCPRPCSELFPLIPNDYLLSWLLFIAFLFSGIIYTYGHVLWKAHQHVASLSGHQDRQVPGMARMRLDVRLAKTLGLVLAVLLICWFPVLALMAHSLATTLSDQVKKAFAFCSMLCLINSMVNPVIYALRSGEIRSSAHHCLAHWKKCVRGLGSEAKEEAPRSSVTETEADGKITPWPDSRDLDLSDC
UniProt P17787, 26-502: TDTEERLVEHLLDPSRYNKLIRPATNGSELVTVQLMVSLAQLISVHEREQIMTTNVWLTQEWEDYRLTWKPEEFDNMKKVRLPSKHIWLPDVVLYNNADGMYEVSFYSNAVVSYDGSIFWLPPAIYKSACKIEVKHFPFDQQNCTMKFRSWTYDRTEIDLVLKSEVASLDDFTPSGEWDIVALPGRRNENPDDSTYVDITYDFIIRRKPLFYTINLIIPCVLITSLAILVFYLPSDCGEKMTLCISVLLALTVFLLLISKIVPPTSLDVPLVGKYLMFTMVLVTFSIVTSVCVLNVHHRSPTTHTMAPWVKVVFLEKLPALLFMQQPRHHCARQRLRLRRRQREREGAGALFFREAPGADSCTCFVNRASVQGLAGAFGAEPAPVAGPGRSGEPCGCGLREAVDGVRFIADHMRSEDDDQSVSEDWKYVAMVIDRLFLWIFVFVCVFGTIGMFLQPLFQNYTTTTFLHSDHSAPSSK
UniProt P43681, 29-627 limits assumed: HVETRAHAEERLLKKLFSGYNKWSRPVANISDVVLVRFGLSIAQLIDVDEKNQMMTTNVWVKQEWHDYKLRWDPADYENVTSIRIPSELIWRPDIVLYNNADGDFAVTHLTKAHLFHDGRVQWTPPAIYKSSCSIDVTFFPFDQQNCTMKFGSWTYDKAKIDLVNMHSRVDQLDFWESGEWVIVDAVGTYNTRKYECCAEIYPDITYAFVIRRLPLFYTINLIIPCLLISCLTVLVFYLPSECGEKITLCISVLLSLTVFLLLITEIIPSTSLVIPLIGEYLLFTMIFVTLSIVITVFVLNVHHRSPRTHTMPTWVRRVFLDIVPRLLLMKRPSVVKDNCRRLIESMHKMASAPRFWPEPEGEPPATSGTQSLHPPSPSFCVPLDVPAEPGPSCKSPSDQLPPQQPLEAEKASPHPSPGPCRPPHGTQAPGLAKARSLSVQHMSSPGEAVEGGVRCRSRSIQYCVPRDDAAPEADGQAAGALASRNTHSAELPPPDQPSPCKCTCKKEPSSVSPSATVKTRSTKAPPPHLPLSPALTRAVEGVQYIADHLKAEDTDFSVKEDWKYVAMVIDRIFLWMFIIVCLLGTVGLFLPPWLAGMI
UniProt Q08499, 303-809 limits assumed: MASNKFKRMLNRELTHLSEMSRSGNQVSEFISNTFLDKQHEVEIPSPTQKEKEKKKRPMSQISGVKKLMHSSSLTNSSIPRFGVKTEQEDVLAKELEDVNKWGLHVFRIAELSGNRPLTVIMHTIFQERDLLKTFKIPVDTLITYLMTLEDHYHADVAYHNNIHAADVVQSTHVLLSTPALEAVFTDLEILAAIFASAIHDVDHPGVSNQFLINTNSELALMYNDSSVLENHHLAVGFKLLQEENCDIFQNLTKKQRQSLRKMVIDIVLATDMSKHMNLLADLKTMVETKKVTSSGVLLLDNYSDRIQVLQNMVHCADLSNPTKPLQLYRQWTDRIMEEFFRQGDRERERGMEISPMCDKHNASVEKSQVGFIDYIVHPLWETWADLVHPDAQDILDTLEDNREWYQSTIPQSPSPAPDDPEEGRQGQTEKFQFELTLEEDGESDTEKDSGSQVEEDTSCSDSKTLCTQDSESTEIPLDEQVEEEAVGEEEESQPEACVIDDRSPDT
UniProt P08588, whole entry: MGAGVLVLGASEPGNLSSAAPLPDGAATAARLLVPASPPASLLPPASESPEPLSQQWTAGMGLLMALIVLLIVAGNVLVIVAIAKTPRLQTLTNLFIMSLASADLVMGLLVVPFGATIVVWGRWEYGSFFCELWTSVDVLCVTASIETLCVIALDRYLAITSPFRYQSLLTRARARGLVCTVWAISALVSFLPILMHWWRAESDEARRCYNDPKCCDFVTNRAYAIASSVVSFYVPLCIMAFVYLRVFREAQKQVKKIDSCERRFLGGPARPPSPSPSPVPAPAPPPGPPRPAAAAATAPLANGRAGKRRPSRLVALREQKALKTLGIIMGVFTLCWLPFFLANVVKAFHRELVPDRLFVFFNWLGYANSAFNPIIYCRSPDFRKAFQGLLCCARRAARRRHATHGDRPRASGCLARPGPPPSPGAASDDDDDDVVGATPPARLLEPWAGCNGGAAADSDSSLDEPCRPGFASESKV
UniProt P21554, whole entry: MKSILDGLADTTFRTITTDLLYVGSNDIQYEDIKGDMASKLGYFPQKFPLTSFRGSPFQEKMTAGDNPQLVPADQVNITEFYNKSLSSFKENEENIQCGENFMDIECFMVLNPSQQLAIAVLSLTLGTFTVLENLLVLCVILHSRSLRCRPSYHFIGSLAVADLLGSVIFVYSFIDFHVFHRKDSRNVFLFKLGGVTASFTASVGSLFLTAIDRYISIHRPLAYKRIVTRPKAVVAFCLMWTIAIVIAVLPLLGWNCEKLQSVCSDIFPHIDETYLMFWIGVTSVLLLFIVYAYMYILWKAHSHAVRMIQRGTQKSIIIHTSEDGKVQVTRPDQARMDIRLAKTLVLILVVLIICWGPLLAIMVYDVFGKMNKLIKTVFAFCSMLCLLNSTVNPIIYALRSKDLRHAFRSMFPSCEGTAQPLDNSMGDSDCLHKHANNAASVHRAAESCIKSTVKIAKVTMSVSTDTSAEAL
UniProt P21728, whole entry: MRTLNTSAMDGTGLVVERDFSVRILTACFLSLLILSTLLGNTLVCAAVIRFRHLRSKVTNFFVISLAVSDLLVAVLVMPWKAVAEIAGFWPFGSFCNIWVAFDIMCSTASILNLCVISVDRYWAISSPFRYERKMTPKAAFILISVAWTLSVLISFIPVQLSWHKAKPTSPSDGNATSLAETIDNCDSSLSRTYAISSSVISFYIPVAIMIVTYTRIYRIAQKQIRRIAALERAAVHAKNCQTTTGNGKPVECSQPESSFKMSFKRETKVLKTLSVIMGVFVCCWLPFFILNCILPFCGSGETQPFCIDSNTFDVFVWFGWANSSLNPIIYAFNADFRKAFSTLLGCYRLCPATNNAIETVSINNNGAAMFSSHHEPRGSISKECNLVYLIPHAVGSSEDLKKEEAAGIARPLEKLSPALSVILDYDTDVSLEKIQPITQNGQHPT
UniProt P20309, whole entry: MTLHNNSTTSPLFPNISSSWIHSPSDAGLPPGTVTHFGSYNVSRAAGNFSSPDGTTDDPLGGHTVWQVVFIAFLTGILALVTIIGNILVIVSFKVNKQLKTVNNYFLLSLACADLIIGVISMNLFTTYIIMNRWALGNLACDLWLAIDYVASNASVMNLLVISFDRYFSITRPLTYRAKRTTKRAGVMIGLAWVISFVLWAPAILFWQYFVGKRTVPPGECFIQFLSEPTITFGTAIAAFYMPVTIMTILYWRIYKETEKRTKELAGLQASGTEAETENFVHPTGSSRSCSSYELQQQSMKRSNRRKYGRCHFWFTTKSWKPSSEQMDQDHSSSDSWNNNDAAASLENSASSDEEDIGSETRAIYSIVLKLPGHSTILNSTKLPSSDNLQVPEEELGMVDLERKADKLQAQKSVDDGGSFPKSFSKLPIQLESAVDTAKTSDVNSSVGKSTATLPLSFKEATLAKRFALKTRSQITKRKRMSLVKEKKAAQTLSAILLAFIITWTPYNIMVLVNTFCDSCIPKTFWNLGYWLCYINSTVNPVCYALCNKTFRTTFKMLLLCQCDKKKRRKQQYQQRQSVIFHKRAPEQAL
UniProt P28564, whole entry: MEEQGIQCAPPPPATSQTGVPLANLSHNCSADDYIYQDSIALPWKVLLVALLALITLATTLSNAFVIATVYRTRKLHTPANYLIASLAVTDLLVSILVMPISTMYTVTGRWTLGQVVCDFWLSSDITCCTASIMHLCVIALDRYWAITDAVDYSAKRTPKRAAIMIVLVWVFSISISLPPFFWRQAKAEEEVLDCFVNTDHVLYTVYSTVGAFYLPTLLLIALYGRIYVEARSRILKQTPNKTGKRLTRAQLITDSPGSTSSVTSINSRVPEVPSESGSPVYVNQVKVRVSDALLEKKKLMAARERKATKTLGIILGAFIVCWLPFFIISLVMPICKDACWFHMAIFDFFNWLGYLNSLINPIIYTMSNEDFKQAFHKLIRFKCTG
UniProt Q01959, whole entry: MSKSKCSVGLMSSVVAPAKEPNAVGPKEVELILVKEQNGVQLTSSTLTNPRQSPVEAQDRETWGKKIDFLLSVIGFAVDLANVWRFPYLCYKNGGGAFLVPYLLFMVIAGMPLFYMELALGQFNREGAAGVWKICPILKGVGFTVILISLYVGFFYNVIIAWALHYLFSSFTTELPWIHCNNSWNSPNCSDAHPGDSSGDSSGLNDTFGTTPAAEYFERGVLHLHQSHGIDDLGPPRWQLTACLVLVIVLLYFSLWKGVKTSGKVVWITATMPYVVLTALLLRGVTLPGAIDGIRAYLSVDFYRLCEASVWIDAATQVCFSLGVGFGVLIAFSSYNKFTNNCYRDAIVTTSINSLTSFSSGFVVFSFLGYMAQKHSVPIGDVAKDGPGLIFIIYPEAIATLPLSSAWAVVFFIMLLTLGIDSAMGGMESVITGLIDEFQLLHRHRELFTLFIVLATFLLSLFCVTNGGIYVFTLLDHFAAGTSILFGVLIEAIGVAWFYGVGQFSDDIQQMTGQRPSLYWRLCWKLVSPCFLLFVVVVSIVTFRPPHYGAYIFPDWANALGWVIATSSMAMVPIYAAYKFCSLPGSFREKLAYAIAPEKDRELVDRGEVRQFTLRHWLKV
UniProt P31645, whole entry: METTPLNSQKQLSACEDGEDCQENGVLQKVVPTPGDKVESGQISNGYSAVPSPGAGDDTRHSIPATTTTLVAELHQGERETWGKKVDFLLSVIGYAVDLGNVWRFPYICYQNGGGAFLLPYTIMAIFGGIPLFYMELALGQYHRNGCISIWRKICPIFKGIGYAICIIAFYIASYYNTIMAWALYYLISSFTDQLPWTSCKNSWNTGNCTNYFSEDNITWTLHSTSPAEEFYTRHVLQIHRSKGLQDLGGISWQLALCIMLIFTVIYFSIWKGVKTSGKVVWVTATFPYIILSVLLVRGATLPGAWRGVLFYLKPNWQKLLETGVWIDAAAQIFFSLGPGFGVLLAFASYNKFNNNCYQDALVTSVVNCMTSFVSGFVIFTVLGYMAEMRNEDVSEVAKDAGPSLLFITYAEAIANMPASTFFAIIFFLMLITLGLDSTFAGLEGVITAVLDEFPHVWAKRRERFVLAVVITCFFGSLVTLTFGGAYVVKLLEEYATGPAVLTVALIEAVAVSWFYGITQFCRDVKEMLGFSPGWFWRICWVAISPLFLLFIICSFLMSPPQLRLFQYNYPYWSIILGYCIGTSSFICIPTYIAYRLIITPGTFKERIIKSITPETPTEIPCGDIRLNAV

According to PMC5864910, “Mutacin 1140 Lantibiotic Variants Are Efficacious Against Clostridium difficile Infection” (Frontiers in Microbiology, 2018):

Experiments:
kappa (KOP) = kappa (KOP) (Homo sapiens, UniProt P41145)
CB2 = CB2 (Homo sapiens, UniProt P34972)
N- neuronal a4b2 = N- neuronal a4b2 (Homo sapiens, UniProt P17787+P43681)
PDE4D2 = PDE4D2 (Homo sapiens, UniProt Q08499)
Beta1 = Beta1 (Homo sapiens, UniProt P08588)
CB1 = CB1 (Homo sapiens, UniProt P21554)
D1 = D1 (Homo sapiens, UniProt P21728)
M3 = M3 (Homo sapiens, UniProt P20309)
5-HT (1B) = 5-HT (1B) (Rattus norvegicus, UniProt P28564)
Dopamine = Dopamine (Homo sapiens, UniProt Q01959)
5-HT Transporter = 5-HT Transporter (Homo sapiens, UniProt P31645)
AR = biological target: T1, AR (Homo sapiens, UniProt P10275, T878A)
T1 sequence (P10275 1-920 T878A): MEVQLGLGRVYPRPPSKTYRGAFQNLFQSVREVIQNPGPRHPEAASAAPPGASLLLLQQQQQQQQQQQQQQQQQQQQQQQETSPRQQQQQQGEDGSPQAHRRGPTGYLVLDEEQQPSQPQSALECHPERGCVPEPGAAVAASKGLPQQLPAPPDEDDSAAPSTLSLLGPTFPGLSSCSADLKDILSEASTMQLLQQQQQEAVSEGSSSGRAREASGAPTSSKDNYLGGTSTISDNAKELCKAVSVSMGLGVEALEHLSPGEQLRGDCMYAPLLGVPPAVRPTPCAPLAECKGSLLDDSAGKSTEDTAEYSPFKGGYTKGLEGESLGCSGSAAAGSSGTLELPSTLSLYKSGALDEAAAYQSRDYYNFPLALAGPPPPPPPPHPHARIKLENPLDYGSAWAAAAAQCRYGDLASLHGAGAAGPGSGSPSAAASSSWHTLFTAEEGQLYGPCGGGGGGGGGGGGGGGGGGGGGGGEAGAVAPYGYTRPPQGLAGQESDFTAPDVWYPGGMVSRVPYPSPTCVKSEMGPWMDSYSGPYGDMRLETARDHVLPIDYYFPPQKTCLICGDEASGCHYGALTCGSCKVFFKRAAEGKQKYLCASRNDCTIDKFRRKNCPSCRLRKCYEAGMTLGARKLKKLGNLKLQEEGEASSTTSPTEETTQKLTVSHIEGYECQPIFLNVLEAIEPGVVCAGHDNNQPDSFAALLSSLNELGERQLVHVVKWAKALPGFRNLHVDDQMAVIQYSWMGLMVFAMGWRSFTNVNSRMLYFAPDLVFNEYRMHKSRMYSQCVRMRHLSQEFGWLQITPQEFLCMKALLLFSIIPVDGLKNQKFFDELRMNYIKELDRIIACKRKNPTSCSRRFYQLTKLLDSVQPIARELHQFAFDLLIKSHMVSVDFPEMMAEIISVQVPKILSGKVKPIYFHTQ

C=C1NC(=O)[C@H](Cc2c[nH]c3ccccc23)NC(=O)[C@H](NC(=O)[C@H](CCCCN)NC(=O)[C@@H](N)Cc2ccccc2)CSC[C@@H](C(=O)N[C@H]2C(=O)N3CCC[C@H]3C(=O)NCC(=O)N[C@H](C(=O)N[C@@H](C)C(=O)N[C@@H](CCCNC(=N)N)C(=O)N/C(=C\C)C(=O)NCC(=O)N[C@@H]3CSC[C@@H]4NC(=O)[C@H](Cc5ccc(O)cc5)NC(=O)[C@@H](CS/C=C\NC4=O)NC(=O)[C@H](CC(N)=O)NC(=O)[C@H](Cc4ccccc4)NC3=O)CS[C@H]2C)NC(=O)[C@H](C)NC1=O [L6A]
Cerep SafetyScreen 44 % Inhibition kappa (KOP) (kappa (KOP)): 11%
Cerep SafetyScreen 44 % Inhibition CB2 (CB2): 10%
Cerep SafetyScreen 44 % Inhibition N- neuronal a4b2 (N- neuronal a4b2): 0%
Cerep SafetyScreen 44 % Inhibition PDE4D2 (PDE4D2): 3%
Cerep SafetyScreen 44 % Inhibition Beta1 (Beta1): -8%
Cerep SafetyScreen 44 % Inhibition CB1 (CB1): 11%
Cerep SafetyScreen 44 % Inhibition D1 (D1): -4%
Cerep SafetyScreen 44 % Inhibition M3 (M3): -4%
Cerep SafetyScreen 44 % Inhibition 5-HT (1B) (5-HT (1B)): -34%
Cerep SafetyScreen 44 % Inhibition Dopamine (Dopamine): -2%
Cerep SafetyScreen 44 % Inhibition 5-HT Transporter (5-HT Transporter): -7%
Cerep SafetyScreen 44 % Inhibition AR (AR): -8%
